This assay deals with hematopoietic stem cells. As to conditions: mice receiving sublethal doses of irradiation.

This is a selection: effects in other tests are not listed, and their absence says nothing.

On to tetrachlorodecaoxide, for which the “regeneration of hematopoietic stem cells” value is “stimulated regeneration of hematopoietic stem cells”.

These data come from patent US20220143081A1, “SYSTEM AND METHOD OF TREATING INFLAMMATORY LUNG DISEASES” (priority 2020, published 2022).
